{"source": "ChEMBL document CHEMBL4699501", "about": "“Dihydrodibenzothiepine: Promising hydrophobic pharmacophore in the influenza cap-dependent endonuclease inhibitor” (Bioorg Med Chem Lett, 2020)", "assay": "Inhibition of Influenza virus Cap-dependent endonuclease", "set-up": "species or system Influenza A virus", "note": "pIC50: −log10 of the molar value.", "data": [{"smiles": "CC(CN(C)C)N1CN(C2c3ccccc3CSc3ccccc32)n2ccc(=O)c(O)c2C1=O", "note": "(configuration not stated)", "values": [{"measurement": "pIC50", "value": 6.82}]}, {"smiles": "CC(C)N1CN(C2c3ccccc3COc3ccccc32)n2ccc(=O)c(O)c2C1=O", "note": "(configuration not stated)", "values": [{"measurement": "pIC50", "value": 6.58}]}]}
